{"source": "patent US20150322033A1", "about": "“ANTIBACTERIAL AGENT” (priority 2012, published 2015)", "key": {"[1]": {"tested_on": "S. aureus FDA209P (ATCC 6538P)", "conditions": "Example 1, Tables 1 to 10"}, "S. aureus Mu50": {"tested_on": "S. aureus Mu50", "conditions": "Example 1, Tables 1 to 10"}}, "data": [{"smiles": "COc1cc(-c2[o+]c3cc(O)cc(O)c3cc2O)ccc1O", "note": "[compound 129]", "values": [{"measurement": "MIC (mg/L) FDA209P", "setting": "[1]", "value": 128, "unit": "mg/L"}, {"measurement": "MIC (mg/L) Mu50", "setting": "S. aureus Mu50", "value": 128, "unit": "mg/L"}]}]}
